Experimental data published in US20220062278A1, “SMALL MOLECULE INHIBITORS OF THE ANDROGEN RECEPTOR ACTIVITY AND/OR EXPRESSION AND USES THEREOF” (Arizona Board of Regents on Behalf of the Univeristy of …, priority 2018, published 2022).
This is a selection: effects in other tests are not listed, and their absence says nothing.

By UniProt entry, the sequences of proteins in these tests, tags left out. Residues count along the entry.
UniProt P10275, 669-920 limits assumed: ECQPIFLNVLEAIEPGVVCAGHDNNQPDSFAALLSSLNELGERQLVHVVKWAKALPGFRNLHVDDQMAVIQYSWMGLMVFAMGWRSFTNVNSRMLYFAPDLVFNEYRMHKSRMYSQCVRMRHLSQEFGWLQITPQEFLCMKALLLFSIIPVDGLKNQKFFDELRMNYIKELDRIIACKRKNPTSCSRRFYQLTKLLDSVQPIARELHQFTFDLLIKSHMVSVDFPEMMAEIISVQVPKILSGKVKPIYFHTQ

Target: AR (Homo sapiens, UniProt P10275)
Assay: GeneBlazer assay, inhibition against AR activity
Conditions: Table III
Description: Tables II, III and IV show % inhibition against AR activity at 10 μm within a GeneBlazer assay, and IC50 values (nM) in GeneBlazer assay.

Structure (SMILES): CCCCn1nnnc1C(c1cccc(O)c1)N1CCC(n2c(=O)[nH]c3ccccc32)CC1 (stereo not shown)
- % Inhibition against AR at 10 uM- GeneBlazer Assay: 83.9%
